Reference: paper PMC4980415 (Psychopharmacology, 2016)
Counter-ions that a name gives are not always drawn.

By UniProt entry, the sequences of proteins in these tests, tags left out. Where a name states a change or a piece, a line headed by the entry shows the natural chain unless it says otherwise. Residues count along the entry.
UniProt Q13370: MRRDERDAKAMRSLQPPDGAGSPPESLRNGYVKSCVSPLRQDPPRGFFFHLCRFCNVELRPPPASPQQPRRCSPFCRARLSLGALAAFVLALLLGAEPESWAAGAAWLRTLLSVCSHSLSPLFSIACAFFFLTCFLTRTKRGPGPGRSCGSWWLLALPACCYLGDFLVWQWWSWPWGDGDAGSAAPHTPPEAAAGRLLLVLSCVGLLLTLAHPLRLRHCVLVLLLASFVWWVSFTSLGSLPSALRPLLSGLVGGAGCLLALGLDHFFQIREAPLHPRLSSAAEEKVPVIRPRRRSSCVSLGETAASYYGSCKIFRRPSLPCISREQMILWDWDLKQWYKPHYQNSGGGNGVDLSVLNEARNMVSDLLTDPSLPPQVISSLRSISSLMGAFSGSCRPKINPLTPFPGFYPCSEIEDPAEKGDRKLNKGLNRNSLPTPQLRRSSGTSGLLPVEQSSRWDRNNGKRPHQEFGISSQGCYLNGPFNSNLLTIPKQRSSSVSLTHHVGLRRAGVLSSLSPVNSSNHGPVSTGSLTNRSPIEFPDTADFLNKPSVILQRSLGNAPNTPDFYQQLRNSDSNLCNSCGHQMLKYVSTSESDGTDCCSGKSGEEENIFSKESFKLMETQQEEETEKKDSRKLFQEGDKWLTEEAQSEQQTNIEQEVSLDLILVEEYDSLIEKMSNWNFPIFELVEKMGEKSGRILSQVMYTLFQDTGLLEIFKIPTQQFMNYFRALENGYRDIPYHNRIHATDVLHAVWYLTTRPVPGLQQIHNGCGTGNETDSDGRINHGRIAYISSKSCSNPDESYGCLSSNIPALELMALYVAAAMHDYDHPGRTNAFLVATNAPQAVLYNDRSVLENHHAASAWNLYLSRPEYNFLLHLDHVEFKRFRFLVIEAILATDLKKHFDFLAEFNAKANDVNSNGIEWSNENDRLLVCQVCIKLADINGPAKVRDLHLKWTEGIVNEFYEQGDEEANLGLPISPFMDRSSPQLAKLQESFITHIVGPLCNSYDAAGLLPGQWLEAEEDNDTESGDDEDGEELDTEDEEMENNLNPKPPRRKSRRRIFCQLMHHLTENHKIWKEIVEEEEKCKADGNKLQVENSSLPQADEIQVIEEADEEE
UniProt Q9NP56: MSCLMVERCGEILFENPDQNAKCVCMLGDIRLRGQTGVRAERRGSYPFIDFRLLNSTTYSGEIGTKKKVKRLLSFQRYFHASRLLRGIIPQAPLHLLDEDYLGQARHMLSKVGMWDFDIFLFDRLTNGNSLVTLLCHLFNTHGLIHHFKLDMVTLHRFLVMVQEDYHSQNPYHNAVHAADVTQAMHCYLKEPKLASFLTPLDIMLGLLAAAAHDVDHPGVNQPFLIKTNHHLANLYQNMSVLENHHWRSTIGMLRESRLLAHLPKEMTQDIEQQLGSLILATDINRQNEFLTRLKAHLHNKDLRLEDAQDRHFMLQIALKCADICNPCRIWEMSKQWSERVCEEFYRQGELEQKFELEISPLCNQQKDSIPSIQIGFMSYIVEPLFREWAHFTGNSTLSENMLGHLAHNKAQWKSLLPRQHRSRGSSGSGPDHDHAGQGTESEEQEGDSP
UniProt Q9Y233, 1-779 isoform Q9Y233-1: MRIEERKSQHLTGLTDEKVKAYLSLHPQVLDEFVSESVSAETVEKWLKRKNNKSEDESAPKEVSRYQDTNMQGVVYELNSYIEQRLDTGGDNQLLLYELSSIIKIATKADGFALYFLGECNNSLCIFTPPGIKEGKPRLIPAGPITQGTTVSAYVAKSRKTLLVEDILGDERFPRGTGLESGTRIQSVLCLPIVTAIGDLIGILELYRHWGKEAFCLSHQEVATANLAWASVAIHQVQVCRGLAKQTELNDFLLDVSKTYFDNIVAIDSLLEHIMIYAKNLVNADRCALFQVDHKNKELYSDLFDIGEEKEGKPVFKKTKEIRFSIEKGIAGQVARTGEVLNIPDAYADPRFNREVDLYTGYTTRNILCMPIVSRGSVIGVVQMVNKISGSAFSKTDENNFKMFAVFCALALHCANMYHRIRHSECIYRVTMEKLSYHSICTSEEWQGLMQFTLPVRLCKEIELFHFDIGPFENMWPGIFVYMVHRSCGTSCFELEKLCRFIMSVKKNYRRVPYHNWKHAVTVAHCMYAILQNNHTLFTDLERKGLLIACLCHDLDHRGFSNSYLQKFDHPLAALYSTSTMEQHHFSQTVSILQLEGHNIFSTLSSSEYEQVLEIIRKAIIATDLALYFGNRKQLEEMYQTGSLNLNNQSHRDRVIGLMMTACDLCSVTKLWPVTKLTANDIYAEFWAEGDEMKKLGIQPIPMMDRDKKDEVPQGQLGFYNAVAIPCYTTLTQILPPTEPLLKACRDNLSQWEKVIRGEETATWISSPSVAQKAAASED
UniProt O00408, whole entry: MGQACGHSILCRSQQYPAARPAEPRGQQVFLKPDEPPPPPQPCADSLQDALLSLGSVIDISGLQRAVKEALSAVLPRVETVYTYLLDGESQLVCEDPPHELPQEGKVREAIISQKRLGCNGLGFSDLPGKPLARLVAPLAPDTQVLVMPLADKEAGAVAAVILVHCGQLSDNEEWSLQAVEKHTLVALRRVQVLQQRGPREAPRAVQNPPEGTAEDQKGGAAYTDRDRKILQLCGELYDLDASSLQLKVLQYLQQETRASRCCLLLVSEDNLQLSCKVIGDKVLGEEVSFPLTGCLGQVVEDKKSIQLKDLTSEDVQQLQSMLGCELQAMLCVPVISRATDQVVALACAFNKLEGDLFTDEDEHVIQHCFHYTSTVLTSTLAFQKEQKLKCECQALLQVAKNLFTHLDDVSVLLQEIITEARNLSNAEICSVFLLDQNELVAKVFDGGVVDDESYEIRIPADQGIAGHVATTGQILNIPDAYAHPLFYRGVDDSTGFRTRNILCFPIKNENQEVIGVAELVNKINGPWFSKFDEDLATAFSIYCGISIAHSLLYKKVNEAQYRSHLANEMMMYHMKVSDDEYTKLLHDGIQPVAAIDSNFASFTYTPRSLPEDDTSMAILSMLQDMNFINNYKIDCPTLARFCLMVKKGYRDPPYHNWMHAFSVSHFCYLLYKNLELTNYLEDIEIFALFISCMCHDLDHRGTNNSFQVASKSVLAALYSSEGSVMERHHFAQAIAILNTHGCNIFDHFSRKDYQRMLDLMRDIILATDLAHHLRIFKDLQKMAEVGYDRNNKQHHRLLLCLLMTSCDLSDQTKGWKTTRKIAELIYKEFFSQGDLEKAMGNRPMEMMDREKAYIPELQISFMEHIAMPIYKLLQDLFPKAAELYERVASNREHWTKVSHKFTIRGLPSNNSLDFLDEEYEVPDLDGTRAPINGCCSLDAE
UniProt O76083: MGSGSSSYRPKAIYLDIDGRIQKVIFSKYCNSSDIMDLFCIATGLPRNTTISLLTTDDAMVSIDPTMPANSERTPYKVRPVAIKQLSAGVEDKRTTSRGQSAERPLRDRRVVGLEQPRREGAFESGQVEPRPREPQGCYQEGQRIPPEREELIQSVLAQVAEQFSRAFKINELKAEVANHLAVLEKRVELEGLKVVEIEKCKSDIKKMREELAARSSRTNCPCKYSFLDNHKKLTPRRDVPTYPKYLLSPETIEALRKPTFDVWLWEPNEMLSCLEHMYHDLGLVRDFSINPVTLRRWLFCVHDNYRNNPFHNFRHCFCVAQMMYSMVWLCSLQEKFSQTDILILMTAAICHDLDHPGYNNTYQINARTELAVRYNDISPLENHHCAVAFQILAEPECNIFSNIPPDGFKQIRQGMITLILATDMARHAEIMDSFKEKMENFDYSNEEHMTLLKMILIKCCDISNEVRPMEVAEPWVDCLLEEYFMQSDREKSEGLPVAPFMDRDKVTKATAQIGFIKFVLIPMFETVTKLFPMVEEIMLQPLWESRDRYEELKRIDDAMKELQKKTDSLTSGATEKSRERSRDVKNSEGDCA

Columns and labels:
[1] = target: hPDE3B (Homo sapiens, UniProt Q13370); conditions: Fl-cAMP substrate
[2] = target: hPDE7B (Homo sapiens, UniProt Q9NP56); conditions: Fl-cAMP substrate
[3] = target: hPDE10A (Homo sapiens, UniProt Q9Y233); conditions: Fl-cAMP substrate
[4] = target: hPDE2A (Homo sapiens, UniProt O00408); experiment: biochemical
[5] = target: hPDE9A (Homo sapiens, UniProt O76083); experiment: biochemical
[6] = tested on: conditioned avoidance responding in male Wistar rats; experiment: Conditioned avoidance response (CAR); conditions: CAR paradigm

SMILES	Ki [1] [µM]	Ki [2] [µM]	Ki [3] [µM]	Ki [4] [µM]	Ki [5] [µM]	effect on number of escape failures [6]
CN1C(=O)c2c(nn(Cc3ccc(-c4cccc(F)n4)cc3)c2Nc2ccccc2)N2C1=N[C@@H]1CCC[C@@H]12 [ITI-214, (6aR,9aS)-2-(4-(6-fluoropyridin-2-yl)benzyl)-5-methyl-3-(phenylamino)-5,6a,7,8,9,9a-hexahydrocyclopenta-[4,5]imidazo[1,2-a]pyrazolo[4,3-e]pyrimidin-4-(2H)-one phosphate salt]	3.1	0.36	1.8	> 10	> 10	–
Cc1nc2n(c(=O)c1CCN1CCC(c3noc4cc(F)ccc34)CC1)CCCC2 [Risperidone, reference compound]	–	–	–	–	–	Neither risperidone nor ITI-214 had significant effects
